Assay results taken from ChEMBL document CHEMBL1212808, “The p110 delta structure: mechanisms for selectivity and potency of new PI(3)K inhibitors” (Nat Chem Biol, 2010).

Target: T1, Phosphatidylinositol 4,5-bisphosphate 3-kinase catalytic subunit delta isoform (Homo sapiens, UniProt O00329)
T1 sequence (O00329 whole entry): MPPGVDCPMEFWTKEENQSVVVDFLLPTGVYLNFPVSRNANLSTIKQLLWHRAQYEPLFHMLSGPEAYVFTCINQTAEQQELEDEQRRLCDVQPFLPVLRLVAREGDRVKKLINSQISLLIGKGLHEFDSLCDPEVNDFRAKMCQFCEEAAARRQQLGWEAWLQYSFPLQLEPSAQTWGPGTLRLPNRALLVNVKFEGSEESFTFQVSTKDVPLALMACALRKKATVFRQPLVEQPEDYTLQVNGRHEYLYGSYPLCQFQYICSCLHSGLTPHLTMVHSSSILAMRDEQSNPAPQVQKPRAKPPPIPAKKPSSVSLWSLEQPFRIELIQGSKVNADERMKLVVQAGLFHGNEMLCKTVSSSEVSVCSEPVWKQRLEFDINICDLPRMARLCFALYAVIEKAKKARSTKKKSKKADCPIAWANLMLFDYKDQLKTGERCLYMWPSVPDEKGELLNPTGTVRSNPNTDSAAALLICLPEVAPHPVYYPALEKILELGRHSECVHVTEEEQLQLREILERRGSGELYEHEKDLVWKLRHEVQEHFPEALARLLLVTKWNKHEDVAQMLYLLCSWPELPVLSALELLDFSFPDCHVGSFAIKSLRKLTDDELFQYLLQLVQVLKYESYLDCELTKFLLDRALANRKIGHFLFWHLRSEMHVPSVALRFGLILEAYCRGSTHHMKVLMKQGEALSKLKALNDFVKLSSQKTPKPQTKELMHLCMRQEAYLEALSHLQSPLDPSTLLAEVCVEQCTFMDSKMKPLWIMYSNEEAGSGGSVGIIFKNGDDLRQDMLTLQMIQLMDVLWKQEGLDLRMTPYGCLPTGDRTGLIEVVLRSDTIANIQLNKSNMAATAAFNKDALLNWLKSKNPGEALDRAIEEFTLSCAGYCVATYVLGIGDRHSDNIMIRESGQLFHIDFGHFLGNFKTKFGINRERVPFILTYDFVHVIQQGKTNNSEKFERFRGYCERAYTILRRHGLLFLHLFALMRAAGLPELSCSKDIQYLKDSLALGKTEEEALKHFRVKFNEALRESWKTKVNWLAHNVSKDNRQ
Experiment: Inhibition of p110delta

Row | IC50 [µM] | SMILES
1 | 0.001 | CC(=O)Nc1nc2ccc(-c3nn(Cc4cc5ccccc5nc4N4CCN(C)CC4)c4ncnc(N)c34)cc2s1
2 | 0.021 | CC(C)n1nc(C#Cc2cccc(O)c2)c2c(N)ncnc21
